From patent US20060222647A1, “Methods and compositions for modulating the activity of PDE5” (priority 1993, published 2006) come the findings set out here.

In the test the target is expressed bovine cGB-PDE cDNA protein product (Bos taurus, UniProt Q28156). Put plainly: cGMP phosphodiesterase activity of extracts of COS cells transfected with bovine cGB-PDE, in presence of PDE inhibitors. The format is biochemical.

As to `OCCN(CCO)c1nc(N2CCCCC2)c2nc(N(CCO)CCO)nc(N3CCCCC3)c2n1` [dipyridamole], the IC50 worked out at 3.5 µM.

As a reminder, the IC50 is the concentration needed to halve the response being measured.
